The source of these data is BindingDB's records for patent US11485745 (Valo Health, 2022).

Amino acid sequences for entries named in this document (tags omitted). A change or cut given only in a name is not applied to a line headed by its entry.
UniProt P43490: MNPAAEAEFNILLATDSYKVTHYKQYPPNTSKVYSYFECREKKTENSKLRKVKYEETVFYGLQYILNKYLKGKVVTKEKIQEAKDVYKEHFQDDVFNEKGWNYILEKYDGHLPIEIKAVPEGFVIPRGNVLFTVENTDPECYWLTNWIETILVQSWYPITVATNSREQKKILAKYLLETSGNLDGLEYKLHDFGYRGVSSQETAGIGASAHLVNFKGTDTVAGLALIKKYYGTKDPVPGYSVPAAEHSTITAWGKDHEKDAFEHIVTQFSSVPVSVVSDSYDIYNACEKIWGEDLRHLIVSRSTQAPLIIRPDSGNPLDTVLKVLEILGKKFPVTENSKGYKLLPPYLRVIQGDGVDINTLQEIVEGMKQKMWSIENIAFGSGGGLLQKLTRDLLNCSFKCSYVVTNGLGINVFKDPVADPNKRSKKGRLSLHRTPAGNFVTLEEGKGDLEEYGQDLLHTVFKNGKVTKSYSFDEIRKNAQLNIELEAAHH

Structures are written as SMILES.

This test addresses Nicotinamide phosphoribosyltransferase (Homo sapiens, UniProt P43490). Description: Biochemical Inhibition Assay.

For orientation: IC50 means the concentration at which inhibition is half-maximal. Lower therefore signals greater potency in that assay. The compound `O=C(NCC1CC12CCN(C(=O)c1cc(C3CC3)c[nH]1)CC2)c1cc2ccncc2o1` (stereo unspecified) [US11485745, Example 123] showed an IC50 of 66.1 nM.
